The source of these data is patent US10988445B2 (AstraZeneca AB, priority 2015, dated 2021).

The test system of the assay is human TH17 cells. Nature of the assay: Inhibition of IL-17 release from human TH17 cells. The conditions noted are these: isolated human TH17 cells, 4 days culture, IL-17A by HTRF; for IC50: Homo sapiens, 96 h, read-out: pIC50 IL-17 release (converted). In kind it is cell-based. From the text:
Inhibition of IL-17 Release from Human TH17 Cells (IL-17 Release)
This test is designed to screen compounds for their inhibitory effect on the release of IL-17 from isolated and cultured human TH17 cells.
Peripheral blood mononuclear cells (PBMC) were isolated from heparin treated human whole blood fromhealthy donors by density gradient centrifugation. TH17 cells (CD4+CXCR3-CCR6+) were enriched using a human TH17 Cell Enrichment Kit (Stemcell Technologies) according to the manufacturer's protocol. […] On day 4 supernatants were collected and IL-17A was measured using a Human IL-17 HTRF Assay kit (Cisbio Bioassays) according to the manufacturer's protocol. […] Results
(In general: Time-resolved FRET reads energy transfer from a long-lived donor to a nearby acceptor.)

Where only a bound is given, the exact number is not on record here.

With `COC1(C(=O)N2Cc3cc(S(=O)(=O)C4CC4)ccc3C2C(=O)Nc2ccc(C(O)(C(F)(F)F)C(F)(F)F)cc2)CC1` (stereo not shown) [Example 603, 5-(Cyclopropylsulfonyl)-N-[4-(1,1,1,3,3,3-hexafluoro-2-hydroxypropan-2-yl)phenyl]-2-[(1-methoxycyclopropyl)carbonyl]-2,3-dihydro-1H-isoindole-1-carboxamide], the IC50 was 31.6 nM. Regarding `CS(=O)(=O)c1ccc2c(c1)CN(C(=O)C1(C#N)CC1)C2C(=O)Nc1ccc(C(O)(C(F)(F)F)C(F)(F)F)cc1` (single isomer, unassigned) [Example 405, isomer 1, 2-[(1-Cyanocyclopropyl)carbonyl]-N-[4-(1,1,1,3,3,3-hexafluoro-2-hydroxypropan-2-yl)phenyl]-5-(methylsulfonyl)-2,3-dihydro-1H-isoindole-1-carboxamide], where the note is “listed as 405, isomer 1”, the “pIC50 IL-17 release” value turned out to be 7.8.

With `CS(=O)(=O)c1ccc2c(c1)CN(C(=O)C1(C#N)CC1)C2C(=O)Nc1ccc(C(O)(C(F)(F)F)C(F)(F)F)cc1` (single isomer, unassigned) [Example 405, isomer 2, 2-[(1-Cyanocyclopropyl)carbonyl]-N-[4-(1,1,1,3,3,3-hexafluoro-2-hydroxypropan-2-yl)phenyl]-5-(methylsulfonyl)-2,3-dihydro-1H-isoindole-1-carboxamide], the “pIC50 IL-17 release” value (listed as 405, isomer 2) is under 6.8.

For the molecule `CS(=O)(=O)c1ccc2c(c1)CN(C(=O)C1(C#N)CC1)C2C(=O)Nc1ccc(C(O)(C(F)(F)F)C(F)(F)F)cc1` (racemic) [Example 405, racemate, 2-[(1-Cyanocyclopropyl)carbonyl]-N-[4-(1,1,1,3,3,3-hexafluoro-2-hydroxypropan-2-yl)phenyl]-5-(methylsulfonyl)-2,3-dihydro-1H-isoindole-1-carboxamide], the IC50 is 39.8 nM.
